Test results reported in patent publication US9220795B2, “Indole derivatives” (priority 2011, dated 2015).

Assay: In vivo biodistribution method
Design: species or system Adult male Wistar rats
Description: Imaging agents of the invention were tested in an in vivo biodistribution model along with a previous tetracyclic imaging agent (from co-pending patent application PCT/EP2009/062827; synthesis described in Example 18 below).

CCN(CC)C(=O)C1CCCc2c1c1cc(F)ccc1n2CC[18F] (centres unmarked) [Imaging agent 9, 6-Fluoro-9-(2-[^18F]fluoro-ethyl)-2,3,4,9-tetrahydro-1H-carbazole-4-carboxylic acid diethylamide]
OB: Str 30 min (ratio olfactory bulb to striatum at 30 min): 3.72
Str 2: 30 min (ratio striatum 2 min to 30 min): 4.27
